Columns and labels:
[1] = target: T1, Protein arginine N-methyltransferase 1 (Homo sapiens, UniProt Q99873); assay: Inhibition of recombinant C-terminal GST-tagged PRMT1 (unknown origin)
[2] = target: T1, Protein arginine N-methyltransferase 1; assay: Inhibition of 6His-tagged human recombinant PRMT1 using Histone H4 as substrate

Sequences of proteins named here, by UniProt entry; tags and fusion partners are left off.
UniProt Q99873, whole entry: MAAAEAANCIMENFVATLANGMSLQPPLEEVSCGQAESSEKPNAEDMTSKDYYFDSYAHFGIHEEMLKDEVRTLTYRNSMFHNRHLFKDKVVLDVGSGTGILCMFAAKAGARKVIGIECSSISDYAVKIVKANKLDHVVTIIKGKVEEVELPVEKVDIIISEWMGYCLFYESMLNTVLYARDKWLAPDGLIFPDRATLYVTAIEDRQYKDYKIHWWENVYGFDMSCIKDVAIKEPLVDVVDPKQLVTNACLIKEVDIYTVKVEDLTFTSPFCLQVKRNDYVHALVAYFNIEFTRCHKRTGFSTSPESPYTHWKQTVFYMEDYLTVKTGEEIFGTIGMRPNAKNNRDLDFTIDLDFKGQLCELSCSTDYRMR

**Q.** With Nc1ncnc2c1ncn2[C@@H]1O[C@H](C[C@@H](N)CC[C@H](N)C(=O)O)[C@@H](O)[C@H]1O [SINEFUNGIN] as the compound, how does the IC50 [1] read?
**A.** 1.63 µM

**Q.** What about the IC50 [2] of the same compound?
**A.** 3.7 µM

From ChEMBL document CHEMBL5608239, “Structure, Function, and Activity of Small Molecule and Peptide Inhibitors of Protein Arginine Methyltransferase 1” (J Med Chem, 2024)
